Patent US20010039287A1, “AROMATIC SULFONE HYDROXAMIC ACID METALLOPROTEASE INHIBITOR” (priority 1997, published 2001)

Legend:
Assay in all cases: biochemical
recombinant human MMP-1 = biological target: T1, recombinant human MMP-1 (Homo sapiens, UniProt P03956)
T1 construct: made in house; host or cells: transfected HT-1080 cells (provided by Dr. Harold Welgus, Washington University)
T1 sequence (P03956 100-469): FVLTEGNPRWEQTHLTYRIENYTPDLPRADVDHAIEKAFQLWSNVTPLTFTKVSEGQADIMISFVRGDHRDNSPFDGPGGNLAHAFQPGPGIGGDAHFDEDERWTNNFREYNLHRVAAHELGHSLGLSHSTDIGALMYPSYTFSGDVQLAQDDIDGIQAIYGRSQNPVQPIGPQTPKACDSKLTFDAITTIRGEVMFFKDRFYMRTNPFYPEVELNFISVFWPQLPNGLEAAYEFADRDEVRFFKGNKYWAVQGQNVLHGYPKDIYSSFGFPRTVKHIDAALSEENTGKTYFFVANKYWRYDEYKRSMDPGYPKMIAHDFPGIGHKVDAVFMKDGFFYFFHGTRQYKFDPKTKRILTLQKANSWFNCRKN

recombinant human MMP-2 = biological target: T2, recombinant human MMP-2 (Homo sapiens, UniProt P08253); conditions: MMP-2 IC50 (nM), Inhibition Table B
T2 sequence (P08253 110-660): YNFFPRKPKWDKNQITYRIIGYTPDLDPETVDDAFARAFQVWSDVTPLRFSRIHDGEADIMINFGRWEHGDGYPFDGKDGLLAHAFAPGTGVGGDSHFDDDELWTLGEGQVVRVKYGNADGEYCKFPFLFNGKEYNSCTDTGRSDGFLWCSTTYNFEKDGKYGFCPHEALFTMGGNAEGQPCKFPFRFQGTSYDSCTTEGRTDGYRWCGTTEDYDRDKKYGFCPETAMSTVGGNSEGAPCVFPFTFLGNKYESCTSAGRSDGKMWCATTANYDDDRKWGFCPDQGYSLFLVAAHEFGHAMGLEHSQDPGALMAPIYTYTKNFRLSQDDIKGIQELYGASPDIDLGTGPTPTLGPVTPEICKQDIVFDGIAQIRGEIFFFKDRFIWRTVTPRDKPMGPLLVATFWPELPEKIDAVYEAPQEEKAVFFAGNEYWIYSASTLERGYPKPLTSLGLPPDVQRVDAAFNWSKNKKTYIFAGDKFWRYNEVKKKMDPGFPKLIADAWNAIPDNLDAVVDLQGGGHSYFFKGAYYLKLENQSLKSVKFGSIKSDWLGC

recombinant human MMP-13 = recombinant human MMP-13 (Homo sapiens, UniProt P45452)

## O=C(NO)C1(S(=O)(=O)c2ccc(Oc3ccccc3)cc2)CCOCC1 [Example 94, Tetrahydro-N-hydroxy-4-[(4-phenoxyphenyl)sulfonyl]-2H-pyran-4-carboxamide]
Recombinant human MMP-1
  IC50: 268 nM

## O=C(NO)C1(S(=O)(=O)c2ccc(Oc3cccc(Cl)c3)cc2)CCOCC1 [Example 101, 4-[[4-(3-chlorophenoxy)-phenyl]sulfonyl]tetrahydro-N-hydroxy-2H-pyran-4-carboxamide]
Recombinant human MMP-2
  IC50: 0.3 nM
Recombinant human MMP-1
  IC50: 1800 nM
Recombinant human MMP-13
  IC50: 0.45 nM

## O=C(NO)C1(S(=O)(=O)c2ccc(Oc3ccc(OC(F)(F)F)cc3)cc2)CCOCC1 [Example 69]
Recombinant human MMP-1
  IC50: 1140 nM

## O=C(NO)C1(S(=O)(=O)c2ccc(Oc3ccc(Cl)cc3)cc2)CCOCC1 [Example 100, 4-[[4-(4-chlorophenoxy)-phenyl]sulfonyl]-tetrahydro-N-hydroxy-2H-pyran-4-carboxamide]
Recombinant human MMP-1
  IC50: 435 nM
Recombinant human MMP-13
  IC50: 0.15 nM

## O=C(NO)C1(S(=O)(=O)c2ccc(Oc3ccc(Cl)c(Cl)c3)cc2)CCOCC1 [Example 71, 4-[[4-(3,4-dichlorophenoxy)-phenyl]sulfonyl]-tetrahydro-N-hydroxy-2H-pyran-4-carboxamide]
Recombinant human MMP-2
  IC50: 0.35 nM
Recombinant human MMP-1
  IC50: 3600 nM
Recombinant human MMP-13
  IC50: 0.8 nM

## O=C(NO)C1(S(=O)(=O)c2ccc(Oc3ccc4c(c3)OCO4)cc2)CCNCC1 [Example 40, 4-[[4-(1,3-benzodioxol-5-yloxy)phenyl]sulfonyl]-N-hydroxy-4-piperidinecarboxamide, Monohydrochloride]
Recombinant human MMP-2
  IC50: 0.4 nM
Recombinant human MMP-1
  IC50: 4400 nM
Recombinant human MMP-13
  IC50: 1.9 nM

## C#CCN1CCC(C(=O)NO)(S(=O)(=O)c2ccc(Oc3ccc(OC)cc3)cc2)CC1 [Example 15]
Recombinant human MMP-13
  IC50: 0.4 nM

Where a name gives a salt, the structure may show the parent alone.
